Our source for the activation values is PubChem BioAssay AID624037 (The Scripps Research Institute Molecular Screening Center, 2012).

By UniProt entry, the sequences of proteins in these tests, tags left out.
UniProt P08912, whole entry: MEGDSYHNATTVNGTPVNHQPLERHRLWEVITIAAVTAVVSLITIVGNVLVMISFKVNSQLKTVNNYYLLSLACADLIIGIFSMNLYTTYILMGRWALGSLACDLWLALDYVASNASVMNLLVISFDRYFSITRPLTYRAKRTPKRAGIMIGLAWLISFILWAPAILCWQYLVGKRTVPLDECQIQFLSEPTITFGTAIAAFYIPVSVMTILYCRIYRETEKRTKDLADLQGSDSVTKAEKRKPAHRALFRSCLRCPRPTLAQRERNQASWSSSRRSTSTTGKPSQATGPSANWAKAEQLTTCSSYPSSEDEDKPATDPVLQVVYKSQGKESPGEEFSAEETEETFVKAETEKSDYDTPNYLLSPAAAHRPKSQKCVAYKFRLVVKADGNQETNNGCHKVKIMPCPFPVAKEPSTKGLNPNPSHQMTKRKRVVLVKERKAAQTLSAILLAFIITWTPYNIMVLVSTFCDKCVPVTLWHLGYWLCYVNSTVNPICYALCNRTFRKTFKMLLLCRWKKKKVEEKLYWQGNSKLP

The entries are a selection whose mix differs from that of the whole data set. Some salts and complexes are drawn in separate pieces, as the source files them; their charges need not balance. Activity calls are given as the source filed them.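 How the source made its calls: active means activation above the run's mean over test compounds plus 3 SD (cut at about 23% in these data); inactive means the rest.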

In this experiment the target is Muscarinic acetylcholine receptor M5 (Homo sapiens) (UniProt P08912). The experiment in a line: CHRM5 activators raising intracellular calcium – CHO-K1 cells, Fluo-8 calcium fluorescence, primary screen (AID 624037).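 Further: signal is peak over basal fluorescence ratio across the kinetic read.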 As to conditions: CHO-K1 hM5 cells, at 3 µM, hits give high values, 0% DMSO wells, 100% maximal acetylcholine response. In general terms: Calcium assays in cells follow changes in intracellular calcium, usually with a dye or a luminescent sensor.
Take `O=C(OC1CN2CCC1CC2)c1ccc([N+](=O)[O-])cc1` (stereo not drawn): the activation was inactive: -13.8%.

With `O=C(OCCN1CCN(CCOCc2ccccc2)CC1)C(O)(c1ccccc1)c1ccccc1`, the activation is inactive: -6.24%.

Regarding `COc1ccc2c(c1O)-c1c(O)c(OC)cc3c1[C@H](C2)[N+](C)(C)CC3.O=[N+]([O-])c1cc([N+](=O)[O-])c([O-])c([N+](=O)[O-])c1[O-]`, the activation is inactive: 0.32%.

`O=[N+]([O-])c1cc([N+](=O)[O-])c(Nc2ccc(Cl)cc2)c([N+](=O)[O-])c1`: the activation was inactive: 6.76%.

Consider `CP(=O)(Nc1ccccc1F)Oc1ccccc1` (stereo not drawn), for which the activation was inactive: 1.6%.

With `CC(C)c1ccc(OP(C)(=O)Nc2ccc(SC(F)(F)F)cc2)cc1` (stereo not drawn), the activation is inactive: -7.31%.

Take `Cc1c([N+](=O)[O-])cc([N+](=O)[O-])c(Br)c1[N+](=O)[O-]`: the activation was inactive: 2.84%.

For `CCN(CC)CCCOC(=O)C(O)(c1ccccc1)C1CCCCC1` (stereo not drawn), the activation is inactive: -12.9%.

Consider `CP(=O)(Nc1ccccc1)Oc1ccc(F)cc1` (stereo not drawn), for which the activation is inactive: -2.8%.

As to `O=[N+]([O-])c1cc([N+](=O)[O-])c(OC2CCCCC2O)c([N+](=O)[O-])c1` (stereo not drawn), the activation was inactive: 1.84%.

In the case of `CCCCCOc1ccc(NP(C)(=O)Oc2ccc(Cl)cc2Cl)cc1` (stereo not drawn), the activation was inactive: 3.87%.

For `CCN(CC)CCCNc1ccccc1[N+](=O)[O-].O=[N+]([O-])c1cc([N+](=O)[O-])c(O)c([N+](=O)[O-])c1`, the activation is inactive: -6.82%.

`CCOC(=O)c1ccc(NP(C)(=O)Oc2ccc(F)cc2)cc1` (stereo not drawn): the activation was inactive: 3.87%.

With `COc1ccc(OP(C)(=O)Nc2ccc(SC(F)(F)F)cc2)cc1` (stereo not drawn), the activation is inactive: -9.4%.

As for `O=[N+]([O-])c1ccc(OP2(=O)COCCO2)cc1` (stereo not drawn), the activation is inactive: 0.35%.

In the case of `O=[N+]([O-])c1cc([N+](=O)[O-])c(NCC2CCS(=O)(=O)C2)c([N+](=O)[O-])c1` (stereo not drawn), the activation was inactive: -0.92%.

Consider `Cc1cc(-c2cccc3ccccc23)c(C)cn1.O=[N+]([O-])c1cc([N+](=O)[O-])c(O)c([N+](=O)[O-])c1`, for which the activation was inactive: -10.2%.

Regarding `Cc1c(C(c2ccc3c(c2)OCO3)c2c(C)n(C)n(-c3ccccc3)c2=O)c(=O)n(-c2ccccc2)n1C.O=[N+]([O-])c1cc([N+](=O)[O-])c(O)c([N+](=O)[O-])c1`, the activation is inactive: -4.33%.

In the case of `COc1ccc(OP(C)(=O)Nc2cccc(Br)c2)cc1` (stereo not drawn), the activation is inactive: 3.14%.

In the case of `CN(C)C1(CNC(=O)c2ccc(Cl)c(S(N)(=O)=O)c2)CCCCC1`, the activation is inactive: -2.23%.

As for `CN(C)CCOC(=O)C(O)(c1ccccc1)C1CCCCC1` (stereo not drawn), the activation is inactive: -6.84%.

As for `COc1ccc(NP(C)(=O)Oc2ccccc2OC)cc1` (stereo not drawn), the activation was inactive: -3.24%.

`CP(=O)(Nc1ccc2c(c1)OCCO2)Oc1ccccc1` (stereo not drawn): the activation was inactive: -3.02%.

With `Cc1ccccc1NP(C)(=O)Nc1ccccc1C`, the activation is inactive: -0.69%.

On to `O=[N+]([O-])c1cc([N+](=O)[O-])c(C(F)(F)F)c([N+](=O)[O-])c1O`, for which the activation is inactive: 0.41%.

Regarding `CP(=O)(Nc1ccc(SC(F)(F)F)cc1)Oc1ccc(F)cc1` (stereo not drawn), the activation is inactive: 0.49%.

`CCOP(C)(=S)SCC(=O)NC(C)(CC)C(=O)O` (stereo not drawn): the activation was inactive: -1.42%.

For `CC(C)(C)c1ccc(OP(C)(=O)O)cc1`, the activation is inactive: 1.23%.

Consider `COc1ccccc1OP(C)(=O)Nc1ccccc1Br` (stereo not drawn), for which the activation was inactive: -4.08%.

For the compound `CP(=O)(Nc1ccc(Cl)cc1)Oc1ccc(F)cc1` (stereo not drawn), the activation was inactive: 0.44%.

Turning to `CN(C)C(=O)c1c([N+](=O)[O-])cc([N+](=O)[O-])cc1[N+](=O)[O-]`, the activation was inactive: -2.21%.

As for `CCN(CC)CC(O)COC(=O)C(O)(c1ccccc1)C1CCCCC1` (stereo not drawn), the activation is inactive: -16.6%.

Turning to `COc1ccc(OP(C)(=O)Nc2ccc(Br)cc2)cc1` (stereo not drawn), the activation is inactive: -2.02%.

With `COc1ccccc1OP(C)(=O)Nc1c(C)n(C)n(-c2ccccc2)c1=O` (stereo not drawn), the activation is inactive: -0.2%.

Turning to `O=C(OCCCN1CCCC1)C(O)(c1ccccc1)C1CCCCC1` (stereo not drawn), the activation is inactive: -19.7%.

In the case of `CP(=O)(Oc1ccccc1)N1CCOC1=O` (stereo not drawn), the activation was inactive: -3.96%.

For the compound `CCc1ccc(OP(C)(=O)Nc2cccnc2)cc1` (stereo not drawn), the activation is inactive: -5.58%.

`CCOC(=O)c1ccc(NP(C)(=O)Oc2ccc(Cl)cc2)cc1` (stereo not drawn): the activation was inactive: -2.47%.

Turning to `CP(=O)(OC12CC3CC(CC(C3)C1)C2)OC12CC3CC(CC(C3)C1)C2`, the activation is inactive: 8.12%.

Regarding `CP(=O)(OCCOc1ccccc1)OCCOc1ccccc1`, the activation is inactive: 0.18%.

With `CP(=O)(Nc1ccc(Cl)cc1Cl)Oc1ccccc1` (stereo not drawn), the activation is inactive: 0.52%.

As for `CCCCCCCCCCCCCCCC1C[N+](C)(C)CCOP(C)(=O)O1` (stereo not drawn), the activation is inactive: -4.31%.

For `O=C1C(O)=C([N+](=O)[O-])C(=O)C(O)=C1[N+](=O)[O-]`, the activation was inactive: 0.16%.

`Cc1cc(C)cc(OP(C)(=O)Nc2cccc(C(F)(F)F)c2)c1` (stereo not drawn): the activation was inactive: -3.54%.

Consider `COc1ccccc1OP(C)(=O)Nc1ccc(C)c(C)c1` (stereo not drawn), for which the activation was inactive: 1.11%.

`COc1ccc(OP(C)(=O)Nc2ccccc2Br)cc1` (stereo not drawn): the activation was inactive: -1.76%.

As to `O=[N+]([O-])c1cc([N+](=O)[O-])c(Nc2ccccn2)c([N+](=O)[O-])c1`, the activation is inactive: -0.3%.

With `Cc1c(NP(C)(=O)Oc2ccc(C(C)C)cc2)c(=O)n(-c2ccccc2)n1C` (stereo not drawn), the activation was inactive: -1.42%.

Regarding `CP(=O)(Nc1ccccn1)Oc1ccccc1` (stereo not drawn), the activation was inactive: 1.42%.

For the compound `COc1ccccc1OP(C)(=O)Nc1ccc(C)cc1C` (stereo not drawn), the activation was inactive: 0.76%.

Regarding `CCc1ccc(OP(C)(=O)O)cc1`, the activation is inactive: 2.97%.

Consider `COc1ccccc1OP(C)(=O)Nc1ccc(Br)cc1` (stereo not drawn), for which the activation is inactive: 1.99%.

Regarding `COc1ccc(OP(C)(=O)Nc2ccccn2)cc1` (stereo not drawn), the activation is inactive: 0.78%.

As for `CN(C)CCOC(=O)C(O)(c1ccccc1)C1CCCC1` (stereo not drawn), the activation was inactive: -6.57%.

Take `COc1ccccc1-c1ccccn1.O=[N+]([O-])c1cc([N+](=O)[O-])c(O)c([N+](=O)[O-])c1`: the activation is inactive: 1.35%.

As for `CCN(CC)CCCOC(=O)C(O)(c1ccccc1)c1ccccc1`, the activation is inactive: -15.3%.

Consider `COc1ccccc1OP(C)(=O)Nc1ccc(C)cc1` (stereo not drawn), for which the activation is inactive: 2.15%.

Regarding `Cc1ccc(NP(C)(=O)Oc2ccccc2)c(C)c1` (stereo not drawn), the activation was inactive: -3.88%.
